Values of other authors as cited in patent publication US20120178771A1, “Oral Pharmaceutical Compositions of Buprenorphine and Method of Use” (priority 2008, published 2012).

Conditions: principal metabolite of buprenorphine; Kuhlman et al, Addiction 1998

CO[C@]12CC[C@@]3(C[C@@H]1[C@](C)(O)C(C)(C)C)[C@H]1Cc4ccc(O)c5c4[C@@]3(CCN1)[C@H]2O5
elimination half-life: approximately 57 hours
